Earlier results, collected in patent US10927398B2, “Compositions for CYP450 phenotyping using saliva samples” (Concordia University, Inc., priority 2015, dated 2021).

Key:
plasma protein = settings: Table of Exemplary Drugs, CYP3A4; cited from earlier work
[1] = Table of Exemplary Drugs, CYP3A4; cited from earlier work

## Maraviroc [Maraviroc (Selzentry)]
Plasma protein
  PLASMA PROTEIN BINDING: 76%
[1]
  HALF-LIFE: 14 to 18 h
